We go through 2 molecules from patent US12570711B2, “Platforms for co-stimulation, novel car designs and other enhancements for adoptive cellular therapy” (Angeles Therapeutics, Inc., priority 2017, dated 2026).

For series [1], the system named is Mesothelin, IL13Ra2 and hematopoietic markers (CD19, CD20, CD22, BCMA). Briefly: Effect of CAR combination on in vivo T cell expansion in patients with mesothelioma and glioblastomas. Also on record: species or system human. The following applies: T cells that are defective in TCR chains; coexpressed CD20 CAR. Here is the method:
Patients with mesothelioma and glioblastomas are administered T cells infected with lentiviruses encoding the following combination of CARs targeting Mesothelin (expressed on mesotheloma), IL13Ra2 (expressed on Glioblastomas) and hematopoietic markers (CD19, CD20, CD22, BCMA). The T cells are either of the wild-type TCR chains or have the TCRα chain knocked out by CRISP/Cas9 approach. It is observed that coexpression in the same T cells with the wild-type TCR chains of a CAR targeting mesothelin with a CAR targeting CD19, CD20, CD22 or BCMA results in increased T cell expansion in vivo as compared to expression of Mesothelin alone.

Series [2] addresses T1, CD19-ECD-GGS-NLuc fusion protein (Homo sapiens, UniProt P15391).
T1 construct: made in house
T1 sequence (P15391 20-290): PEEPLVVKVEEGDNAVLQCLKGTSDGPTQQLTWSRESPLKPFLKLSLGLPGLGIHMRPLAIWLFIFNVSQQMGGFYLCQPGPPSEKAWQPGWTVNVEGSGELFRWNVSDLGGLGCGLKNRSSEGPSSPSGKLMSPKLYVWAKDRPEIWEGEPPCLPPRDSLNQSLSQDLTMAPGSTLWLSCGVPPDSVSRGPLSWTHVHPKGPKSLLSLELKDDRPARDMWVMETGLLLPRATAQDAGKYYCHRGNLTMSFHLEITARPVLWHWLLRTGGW
Briefly: CAR surface expression on J-N-G cells by binding with CD19-ECD-GGS-NLuc fusion protein. In kind it is cell-based. The following applies: compared to wild-type EF1α promoter. From the text: Use of strong viral promoters in adoptive cellular therapy applications carries the risk of activation of downstream oncogenes and development of cancer. As such, human Elongation Factor 1α (EF1α) promoter is frequently used in adoptive cellular therapy applications as it provides strong expression and is human in origin. A limitation of EF1α promoter, however, is its relatively large size. Although a mini-EF1α promoter has been described, it is much weaker as compared to the EF1α promoter. To determine whether an internal deletion in the EF1α promoter would allow shortening of its length while preserving its promoter strength, a SacII fragment was deleted from the EF1α promoter. The nucleotide sequence of the resulting EF1α-D-SacII promoter is presented in SEQ ID NO: 3842. Lentiviral vectors encoding a CD19-directed FMC63-BBz CAR were constructed in the vectors with the wild-type EF1α promoter (SEQ ID NO: 3840) or EF1α-D-SacII promoter (SEQ ID NO: 3839). The vectors also co-expressed EGFP and blasticidin resistance gene via 2A linkers. Lentiviruses were generated in 293FT cells and used to infect J-N-G cells.

B1: SEQ ID NO: 9668: SIR based CAR targeting CD20, lacking a hNEMO-K277A module (protein)
chain: MALPVTALLLPLALLLHAARPQIVLSQSPAILSASPGEKVTMTCRASSSVSYMHWYQQKPGSSPKPWIYATSNLASGVPARFSGSGSGTSYSFTISRVEAEDAATYYCQQWTFNPPTFGGGTRLEIKRTVAALEDLKNVFPPEVAVFEPSKAEIAHTQKATLVCLATGFYPDHVELSWWVNGKEVHSGVCTDPQPLKEQPALNDSRYCLSSRLRVSATFWQNPRNHFRCQVQFYGLSENDEWTQDRAKPVTQIVSAEAWGRADCGITSASYHQGVLSATILYEILLGKATLYAVLVSALVLMAMVKRKDSRGRAKRSGSGATNFSLLKQAGDVEENPGPTSMDWIWRILFLVGAATGAHSFEQAYLQQSGAELVRPGASVKMSCKASGYTFTSYNMHWVKQTPRQGLEWIGGIYPGNGDTSYNQKFKGKATLTVGKSSSTAYMQLSSLTSEDSAVYFCARYDYNYAMDYWGQGTSVTVSSASTRIQNPDPAVYQLRDSKSSDKSVCLFTDFDSQTNVSQSKDSDVYITDKCVLDMRSMDFKSNSAVAWSNKSDFACANAFNNSIIPEDTFFPSSDVPCDVKLVEKSFETDTNLNFQNLSVIGFRILLLKVAGFNLLMTLRLWSS
modifications: Synthetic Polynucleotide encoding a CAR with optional accessory module(s)
Regarding B1, the “in vivo T cell expansion” value in series [1] is “successfully induces T cells expansion”.

B2: EF1α-D-SacII promoter: EF1α promoter from which an internal SacII fragment was deleted (nucleic acid)
DNA: GTGAGGCTCCGGTGCCCGTCAGTGGGCAGAGCGCACATCGCCCACAGTCCCCGAGAAGTTGGGGGGAGGGGTCGGCAATTGAACCGGTGCCTAGAGAAGGTGGCGCGGGGTAAACTGGGAAAGTGATGTCGTGTACTGGCTCCGCCTTTTTCCCGAGGGTGGGGGAGAACCGTATATAAGTGCAGTAGTCGCCGTGAACGTTCTTTTTCGCAACGGGTTTGCCGCCAGAACACAGGTAAGTGCCGTGTGTGGTTCCCGCGGGCGGCGACGGGGCCCGTGCGTCCCAGCGCACATGTTCGGCGAGGCGGGGCCTGCGAGCGCGGCCACCGAGAATCGGACGGGGGTAGTCTCAAGCTGGCCGGCCTGCTCTGGTGCCTGGCCTCGCGCCGCCGTGTATCGCCCCGCCCTGGGCGGCAAGGCTGGCCCGGTCGGCACCAGTTGCGTGAGCGGAAAGATGGCCGCTTCCCGGCCCTGCTGCAGGGAGCTCAAAATGGAGGACGCGGCGCTCGGGAGAGCGGGCGGGTGAGTCACCCACACAAAGGAAAAGGGCCTTTCCGTCCTCAGCCGTCGCTTCATGTGACTCCACGGAGTACCGGGCGCCGTCCAGGCACCTCGATTAGTTCTCGACCTTTTGGAGTACGTCGTCTTTAGGTTGGGGGGAGGGGTTTTATGCGATGGAGTTTCCCCACACTGAGTGGGTGGAGACTGAAGTTAGGCCAGCTTGGCACTTGATGTAATTCTCCTTGGAATTTGCCCTTTTTGAGTTTGGATCTTGGTTCATTCTCAAGCCTCAGACAGTGGTTCAAAGTTTTTTTCTTCCATTTCAGGTGTCGTGA
Regarding B2, the “surface expression of the FMC63-BBz CAR” value in series [2] is listed as “near equivalent expression of the FMC63-BBz CAR”.
